Ki data for 1 compound are collected here from patent EP1332762A1, “Method of treating hyperprolactinemia and prolactinomas” (Cedars-Sinai Medical Center, priority 1997, dated 1998).

Chains of the proteins cited; added tags and fusions are not shown. Lines headed by an entry give the natural chain unless they say otherwise; changes in a name come on top.
UniProt P32745: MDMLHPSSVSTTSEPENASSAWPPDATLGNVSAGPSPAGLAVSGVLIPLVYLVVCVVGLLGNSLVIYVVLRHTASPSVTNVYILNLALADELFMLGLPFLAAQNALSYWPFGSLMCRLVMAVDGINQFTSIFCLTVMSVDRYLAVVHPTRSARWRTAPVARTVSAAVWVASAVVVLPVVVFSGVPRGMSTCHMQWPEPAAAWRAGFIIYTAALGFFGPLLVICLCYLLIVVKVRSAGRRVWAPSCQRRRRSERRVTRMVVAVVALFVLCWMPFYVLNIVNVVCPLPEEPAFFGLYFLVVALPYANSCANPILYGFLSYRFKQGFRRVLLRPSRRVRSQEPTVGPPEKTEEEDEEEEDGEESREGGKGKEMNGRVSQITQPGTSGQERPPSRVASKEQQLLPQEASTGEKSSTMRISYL

The target of the assay is hSSTR-3 (Homo sapiens, UniProt P32745). As to the kind of experiment: Somatostatin receptor binding assay ([125I-Tyr11]somatostatin-14, membranes of transfected CHO-K1 cells). Particulars: radioligand 0.05 nM, 30 min at 30 °C.

Turning to `CC[C@@H]1NC(=O)[C@H](CCCCN)NC(=O)[C@@H](Cc2c[nH]c3ccccc23)NC(=O)[C@H](Cc2ccc(O)cc2)NC(=O)[C@@H](NC(=O)[C@@H](Cc2ccccc2)NC(=O)CN2CCN(CCO)CC2)CSSC[C@@H](C(=O)N[C@H](C(N)=O)[C@@H](C)O)NC1=O` [BIM-23190], the affinity, expressed as Ki, was 215 nM.
